The values below are quoted from earlier work in patent US20080200491A1, “1,2-Dihydro-Spiro[3H-Indole-3,4'-Piperidine] Compounds, as Modulators of the Mas Receptor Novel” (priority 2005, published 2008).

Sequences of proteins named here, by UniProt entry; tags and fusion partners are left off.
UniProt Q9Y5X5, whole entry, species assumed: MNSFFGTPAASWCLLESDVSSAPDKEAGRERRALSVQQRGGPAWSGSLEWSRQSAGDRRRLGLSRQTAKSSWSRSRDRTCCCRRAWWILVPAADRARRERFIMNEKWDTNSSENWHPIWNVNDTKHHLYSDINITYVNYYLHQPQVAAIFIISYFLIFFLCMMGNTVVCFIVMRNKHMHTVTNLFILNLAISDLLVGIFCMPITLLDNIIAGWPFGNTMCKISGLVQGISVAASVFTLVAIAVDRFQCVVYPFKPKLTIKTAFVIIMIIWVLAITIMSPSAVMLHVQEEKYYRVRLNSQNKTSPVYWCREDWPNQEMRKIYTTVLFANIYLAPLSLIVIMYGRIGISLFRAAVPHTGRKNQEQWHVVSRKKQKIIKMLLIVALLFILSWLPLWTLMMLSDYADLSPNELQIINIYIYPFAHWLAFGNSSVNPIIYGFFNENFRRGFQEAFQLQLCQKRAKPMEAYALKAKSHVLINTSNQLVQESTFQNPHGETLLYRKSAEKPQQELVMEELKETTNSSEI
UniProt Q9GZQ6, whole entry, species assumed: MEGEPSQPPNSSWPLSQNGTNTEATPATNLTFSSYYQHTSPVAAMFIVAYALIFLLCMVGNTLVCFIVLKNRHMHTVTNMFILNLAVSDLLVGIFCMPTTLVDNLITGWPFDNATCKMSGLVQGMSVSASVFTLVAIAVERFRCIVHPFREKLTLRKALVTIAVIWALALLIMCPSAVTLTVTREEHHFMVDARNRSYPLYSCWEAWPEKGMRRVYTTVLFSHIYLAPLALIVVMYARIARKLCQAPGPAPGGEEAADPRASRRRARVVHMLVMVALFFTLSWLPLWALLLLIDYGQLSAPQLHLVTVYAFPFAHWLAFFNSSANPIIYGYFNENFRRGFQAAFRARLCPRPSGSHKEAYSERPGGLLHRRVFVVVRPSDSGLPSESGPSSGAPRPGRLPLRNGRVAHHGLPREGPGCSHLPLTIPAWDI

For one data set, the target named is NPFF2 (Homo sapiens, UniProt Q9Y5X5). The conditions noted are these: Bonini et al. 2000; Elshourbagy et al. 2000; cited from earlier work.
A further data set addresses NPFF1 (Homo sapiens, UniProt Q9GZQ6). The conditions noted are these: Bonini et al. 2000; Elshourbagy et al. 2000; cited from earlier work.

A word on the Kd: it is a measure of binding affinity in units of concentration. As to “a peptide called NPFF, reported to bind the Mas receptor weakly and NPFF1/NPFF2 with high affinity”, the Kd in the data set with NPFF2 was 0.3 nM; with NPFF1, 1.3 nM.
